## scFv variants of Ab-95 (light chain) against a SARS-CoV-2 spike peptide

Reference: Engelhart et al. 2022, doi:10.1038/s41597-022-01779-4. File: FLAb, binding data.

The target is the same throughout: PDVDLGDISGINAS, from the HR2 region of SARS-CoV-2 spike.

The variants keep the heavy chain, the linker and the frameworks of Ab-95 (scFv order VH, the linker GGGGSGGGGSGGGGS, VL).
VH: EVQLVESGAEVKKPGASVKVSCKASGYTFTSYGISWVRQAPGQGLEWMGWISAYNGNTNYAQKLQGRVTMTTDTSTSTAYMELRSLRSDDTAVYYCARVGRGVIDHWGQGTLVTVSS
VL: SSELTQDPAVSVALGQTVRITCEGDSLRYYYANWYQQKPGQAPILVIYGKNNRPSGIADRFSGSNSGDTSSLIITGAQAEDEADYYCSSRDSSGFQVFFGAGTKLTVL

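The starting antibody came from a phage panning campaign against this peptide. Library AAYL52 holds single substitutions and randomly drawn double and triple substitutions in the CDRs. In AlphaSeq, yeast of one mating type display the scFv and yeast of the other type display the target. Binding brings cells together so that they mate, and sequencing counts the barcode pairs among the diploids. A regression on co-assayed BCL2-family reference pairs converts the normalised counts of each replicate to an apparent Kd. Each pool was mated in three replicate cultures.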

Substitutions are numbered in sequence along the VL above, starting at 1 (not Kabat).
Every variant below is changed at Q96 of the VL (sequential numbering).
Values are log10 of the apparent Kd in nM; lower means stronger binding.
A mean of the replicates is given; it leaves out those without a signal.
"nd" means that the variant was in the library but no mating with the target was seen in any replicate; the authors take this as a sign of poor binding, and no number exists.

The variant R90H S93T Q96D gave 4.67 (2 of 3 replicates).
The variant G24Y A32P Q96K gave 3.02 (3 of 3 replicates).
The variant Q96I V97D gave 3.76 (1 of 3 replicates).
The variant Q96K gave 2.61 (3 of 3 replicates).
The variant S88W D91P Q96L gave 4.04 (1 of 3 replicates).
The variant A32P G49H Q96I gave 3.66 (3 of 3 replicates).
The variant D25F S93R Q96D gave 4.99 (1 of 3 replicates).
The variant R28Q N51S Q96E gave 3.06 (3 of 3 replicates).
The variant R90K G94V Q96R gave 1.85 (3 of 3 replicates).
The variant N51D G94L Q96I gave 3.25 (2 of 3 replicates).
The variant N52K Q96W gave 3.34 (3 of 3 replicates).
The variant Y29H S55M Q96W gave 1.68 (3 of 3 replicates).
The variant Y29N Q96H gave 1.41 (3 of 3 replicates).
The variant R28D G49Y Q96Y gave 3.90 (2 of 3 replicates).
The variant R90N D91P Q96C gave 2.77 (3 of 3 replicates).
The variant P54W S89L Q96K gave 4.79 (1 of 3 replicates).
The variant R28W S88N Q96A gave 4.56 (2 of 3 replicates).
The variant S89G Q96K V97K gave 2.64 (3 of 3 replicates).
The variant L27K N51H Q96R gave 4.02 (3 of 3 replicates).
The variant S26Q F95A Q96M gave 3.40 (3 of 3 replicates).
The variant N33K G94S Q96L gave nd (0 of 3 replicates).
The variant G24A N33P Q96I gave nd (0 of 3 replicates).
The variant S92E Q96F F98R gave 2.44 (3 of 3 replicates).
The variant Y31I K50A Q96R gave 3.20 (2 of 3 replicates).
The variant D25Q S88M Q96I gave 2.95 (3 of 3 replicates).
The variant D25H R53C Q96A gave 3.51 (1 of 3 replicates).
The variant D25G S26T Q96E gave 2.81 (1 of 3 replicates).
The variant K50D P54D Q96C gave 2.88 (3 of 3 replicates).
The variant G24K S89E Q96C gave 4.18 (2 of 3 replicates).
The variant N52R D91G Q96I gave 3.35 (2 of 3 replicates).
The variant N52C Q96S gave 3.58 (3 of 3 replicates).
The variant S55R D91I Q96Y gave 3.11 (3 of 3 replicates).
The variant S55H S89C Q96V gave 3.02 (3 of 3 replicates).
The variant Q96L gave 2.96 (3 of 3 replicates).
The variant E23H R28V Q96P gave 2.96 (3 of 3 replicates).
The variant R28M Q96L gave 3.37 (2 of 3 replicates).
The variant N52R S89D Q96N gave 3.74 (2 of 3 replicates).
The variant E23G S88Q Q96P gave 2.00 (3 of 3 replicates).

The first 3 entries again:

{"changes": "R90H S93T Q96D", "mean log10 Kd (nM)": "4.67", "replicates with signal": "2 of 3"}
{"changes": "G24Y A32P Q96K", "mean log10 Kd (nM)": "3.02", "replicates with signal": "3 of 3"}
{"changes": "Q96I V97D", "mean log10 Kd (nM)": "3.76", "replicates with signal": "1 of 3"}

Empty control strains, which show no peptide, gave a signal in 28% of pairings with library AAYL52; the median was 3.91 and 95% of these signals were weaker than 2.90. No background was subtracted.